Results: patent US10487084B2, “Toll-like receptor 7 (TLR7) agonists having a heterobiaryl moiety, conjugates thereof, and methods and uses therefor” (BRISTOL-MYERS SQUIBB COMPANY, priority 2017, dated 2019)

Sequences of proteins named here, by UniProt entry; tags and fusion partners are left off. Residues count along the entry.
UniProt Q9NYK1, 27-1049 limits assumed: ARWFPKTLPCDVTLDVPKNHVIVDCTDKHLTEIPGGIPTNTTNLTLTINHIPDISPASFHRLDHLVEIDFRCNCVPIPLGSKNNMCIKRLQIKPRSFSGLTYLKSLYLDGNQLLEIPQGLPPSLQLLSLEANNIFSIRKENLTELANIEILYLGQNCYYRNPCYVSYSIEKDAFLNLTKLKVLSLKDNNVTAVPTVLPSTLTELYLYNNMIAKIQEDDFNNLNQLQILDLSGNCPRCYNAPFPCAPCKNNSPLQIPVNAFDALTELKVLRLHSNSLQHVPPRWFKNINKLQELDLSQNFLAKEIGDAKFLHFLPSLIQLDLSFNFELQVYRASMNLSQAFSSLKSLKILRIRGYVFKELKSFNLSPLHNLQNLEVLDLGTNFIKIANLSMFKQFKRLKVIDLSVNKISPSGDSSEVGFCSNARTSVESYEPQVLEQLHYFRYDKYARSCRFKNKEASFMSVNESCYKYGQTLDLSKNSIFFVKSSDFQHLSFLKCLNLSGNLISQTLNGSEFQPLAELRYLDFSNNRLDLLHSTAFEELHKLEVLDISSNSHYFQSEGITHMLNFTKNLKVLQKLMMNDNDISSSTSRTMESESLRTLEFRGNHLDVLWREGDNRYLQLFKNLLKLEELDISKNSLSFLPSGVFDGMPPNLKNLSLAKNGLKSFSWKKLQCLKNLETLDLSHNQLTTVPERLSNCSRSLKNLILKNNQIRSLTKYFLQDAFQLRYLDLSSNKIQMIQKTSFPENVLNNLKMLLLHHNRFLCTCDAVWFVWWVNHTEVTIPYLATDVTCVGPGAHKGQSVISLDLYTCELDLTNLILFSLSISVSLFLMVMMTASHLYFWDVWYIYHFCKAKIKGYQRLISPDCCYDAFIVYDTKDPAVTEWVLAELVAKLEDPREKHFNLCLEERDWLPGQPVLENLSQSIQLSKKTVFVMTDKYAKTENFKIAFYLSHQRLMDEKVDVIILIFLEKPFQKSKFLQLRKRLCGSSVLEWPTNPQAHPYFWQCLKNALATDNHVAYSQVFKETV

What was measured:
human TLR7 = human TLR7 (Homo sapiens (Human), UniProt Q9NYK1); assay: HEK-Blue TLR7 reporter assay (TLR7 agonism); type: cell-based; details: read-out: TLR7 Agonism (EC50); HEK-Blue TLR7 cells, SEAP reporter, 18 h treatment; tested form: TFA salt
interleukin 6 (IL-6) = assay: Interleukin 6 induction assay in human whole blood; details: read-out: IL-6 Induction (EC50), 37° C. for 20 h, AlphaLISA, tested form: TFA salt

CCCCOc1nc(N)c2nc(O)n(Cc3ccc(-c4cnn(CC(=O)NCCN)c4)cc3)c2n1
EC50 (human TLR7): 5.9 nM | EC50 (interleukin 6 (IL-6)): 12.6 nM
